System: Madin Darby canine kidney cells (MDCK)
Conditions: dog

In the case of `NC(=O)c1ncn([C@@H]2O[C@H](CO)[C@@H](O)[C@H]2O)n1` [ribavirin, reference compound], the “MCC (minimum cytotoxic concentration)” value was over 100 µM.

From article PMC8348901, “Novel N-Substituted 3-Aryl-4-(diethoxyphosphoryl)azetidin-2-ones as Antibiotic Enhancers and Antiviral Agents in Search for a Successful Treatment of Complex Infections” (International Journal of Molecular Sciences, 2021)
